Test system: paw tissue, carrageenan paw edema model
Assay: Histopathological examination of paws, inflammatory cell infiltration score
Settings: vs carrageenan group, 5 hours

For Cc1ccc(-c2cc(C(F)(F)F)nn2-c2ccc(S(N)(=O)=O)cc2)cc1 [Celecoxib, celecoxib, reference compound], the “Reduction in inflammatory cell infiltration score” value was 59.26%.

Source: publication PMC10974743, “Design, Synthesis, and Biological Evaluation of Novel Phenoxy Acetic Acid Derivatives as Selective COX-2 Inhibitors Coupled with Comprehensive Bio-Pharmacological Inquiry, Histopathological Profiling, and Toxicological Scrutiny” (Molecules, 2024)
